According to patent US20140303164A1, “THERAPEUTIC COMPOUNDS” (Gilead Sciences, Inc., priority 2013, published 2014):

Experiment: Test B: Cytotoxicity Assay
Assay type: cell-based
Conditions: human, uninfected MT-4 cells, same protocol as Test A
Experimental: MT-4 cells were next mixed with HIV-IIIb at an m.o.i of 0.003 for 1 hour, after which time 35 μL of virus/cell mixture (2000 cells) was immediately added to each well containing 40 μL of diluted compound. The plates were then incubated at 37° C. for 5 days. After 5 days of incubation, 25 μl of 2× concentrated CellTiter-Glo™ Reagent (catalog #G7571, Promega Biosciences, Inc., Madison, Wis.) was added to each well containing MT-4 cells. Cell lysis was carried out by incubating at room temperature for 10 min and then chemiluminescence was read.
Test B: Cytotoxicity Assay
Compound cytotoxicity and the corresponding CC50 values was determined using the same protocol as described in the antiviral assay (Test A) except that uninfected cells were used.

In the case of `Cc1ccc(-c2ccc(C#CC(C)(C)O)nc2[C@H](Cc2cc(F)cc(F)c2)NC(=O)Cn2nc(C(F)F)c3c2C(F)(F)[C@@H]2C[C@H]32)c2c1c(NS(C)(=O)=O)nn2C` [Compound 112D, 2-((3b-S,4aR)-3-(difluoromethyl)-5,5-difluoro-3b,4,4a,5-tetrahydro-1H-cyclopropa[3,4]cyclopenta[1,2-c]pyrazol-1-yl)-N—((S)-2-(3,5-difluorophenyl)-1-(3-(1,4-dimethyl-3-(methylsulfonamido)-1H-indazol-7-yl)-6-(3-hydroxy-3-methylbut-1-yn-1-yl)pyridin-2-yl)ethyl)acetamide], the CC50 at 5 days is reported as 13.9 µM.

In the case of `COc1ccc(-c2ccc(C#CC(C)(C)O)nc2[C@H](Cc2cc(F)cc(F)c2)NC(=O)Cn2nc(C(F)F)c3c2C(F)(F)[C@@H]2C[C@H]32)c2c1c(NS(C)(=O)=O)nn2C` [Compound 141D, 2-((3b-S,4aR)-3-(difluoromethyl)-5,5-difluoro-3b,4,4a,5-tetrahydro-1H-cyclopropa[3,4]cyclopenta[1,2-c]pyrazol-1-yl)-N—((S)-2-(3,5-difluorophenyl)-1-(6-(3-hydroxy-3-methylbut-1-yn-1-yl)-3-(4-methoxy-1-methyl-3-(methylsulfonamido)-1H-indazol-7-yl)pyridin-2-yl)ethyl)acetamide], the CC50 at 5 days is reported as 19.8 µM.

In the case of `Cn1nc(NS(C)(=O)=O)c2c(F)ccc(-c3ccc(C#CC(C)(C)O)nc3[C@H](Cc3cc(F)cc(F)c3)NC(=O)Cn3nc(C(F)F)c4c3C(F)(F)[C@@H]3C[C@H]43)c21` [Compound 75, 2-((3b-S,4aR)-3-(difluoromethyl)-5,5-difluoro-3b,4,4a,5-tetrahydro-1H-cyclopropa[3,4]cyclopenta[1,2-c]pyrazol-1-yl)-N—((S)-2-(3,5-difluorophenyl)-1-(3-(4-fluoro-1-methyl-3-(methylsulfonamido)-1H-indazol-7-yl)-6-(3-hydroxy-3-methylbut-1-yn-1-yl)pyridin-2-yl)ethyl)acetamide], the CC50 at 5 days is reported as greater than 40.3 µM.

`Cn1nc(NS(C)(=O)=O)c2c(Cl)ccc(-c3ccc(C#CC(C)(C)O)nc3[C@H](Cc3cc(F)cc(F)c3)NC(=O)Cn3nc(C(F)F)c4c3C(F)(F)[C@@H]3C[C@H]43)c21` [Compound 19G, (S)—N-(1-(3-(4 chloro-1-methyl-3-(methylsulfonamido)-1H-indazol-7-yl)-6-(3-hydroxy-3-methylbut-1-ynyl)pyridin-2-yl)-2-(3,5-difluorophenyl)ethyl)-2-((3bS,4aR)-5,5-difluoro-3-(difluoromethyl)-3b,4,4a,5-tetrahydro-1H-cyclopropa[3,4]cyclopenta[1,2-c]pyrazol-1-yl)acetamide] showed a CC50 at 5 days of 19.6 µM.

`Cn1nc(NS(C)(=O)=O)c2c(Cl)ccc(-c3ccc(C#CC(C)(C)O)nc3[C@H](Cc3cc(F)cc(F)c3)NC(=O)Cn3nc(C(F)(F)F)c4c3C(F)(F)[C@@H]3C[C@H]43)c21` [Compound 78, N—((S)-1-(3-(4-chloro-1-methyl-3-(methylsulfonamido)-1H-indazol-7-yl)-6-(3-hydroxy-3-methylbut-1-yn-1-yl)pyridin-2-yl)-2-(3,5-difluorophenyl)ethyl)-2-((3b-S,4aR)-5,5-difluoro-3-(trifluoromethyl)-3b,4,4a,5-tetrahydro-1H-cyclopropa[3,4]cyclopenta[1,2-c]pyrazol-1-yl)acetamide] gave a CC50 at 5 days of 14.4 µM.

With `Cn1nc(NS(C)(=O)=O)c2c(Cl)ccc(-c3ccc(C#CC(C)(O)C(F)F)nc3[C@H](Cc3cc(F)cc(F)c3)NC(=O)Cn3nc(C(F)F)c4c3C(F)(F)[C@@H]3C[C@H]43)c21` (stereo partly drawn) [Compound 169, N-((1S)-1-(3-(4-chloro-1-methyl-3-(methylsulfonamido)-1H-indazol-7-yl)-6-(4,4-difluoro-3-hydroxy-3-methylbut-1-yn-1-yl)pyridin-2-yl)-2-(3,5-difluorophenyl)ethyl)-2-((3b-S,4aR)-3-(difluoromethyl)-5,5-difluoro-3b,4,4a,5-tetrahydro-1H-cyclopropa[3,4]cyclopenta[1,2-c]pyrazol-1-yl)acetamide] the CC50 at 5 days was 12.4 µM.

Work on `Cn1nc(N[S+](C)[O-])c2c(Cl)ccc(-c3ccc(C#CC(C)(C)O)nc3[C@H](Cc3cc(F)cc(F)c3)NC(=O)Cn3nc(C(F)F)c4c3C(F)(F)[C@@H]3C[C@H]43)c21` (stereo partly drawn) [Compound 180C, N-((1S)-1-(3-(4-chloro-1-methyl-3-(methylsulfinamido)-1H-indazol-7-yl)-6-(3-hydroxy-3-methylbut-1-yn-1-yl)pyridin-2-yl)-2-(3,5-difluorophenyl)ethyl)-2-((3b-S,4aR)-3-(difluoromethyl)-5,5-difluoro-3b,4,4a,5-tetrahydro-1H-cyclopropa[3,4]cyclopenta[1,2-c]pyrazol-1-yl)acetamide] yielded a CC50 at 5 days of 21.3 µM.
